IC50 data for one molecule are collected here from patent US20250268906A1, “MOLECULAR GLUE COMPOUND BASED ON CEREBLON PROTEIN DESIGN AND USE THEREOF” (GLUETACS THERAPEUTICS (SHANGHAI) CO., LTD., priority 2022, published 2025).

Bounds are passed on as bounds.

Common to all, as to experiment: Tumor cell proliferation inhibition, CCK-8 kit, 96 h
Type in all cases: cell-based

In one experiment the test system is Daudi cells. The settings on record: Homo sapiens, read-out: IC50 for inhibiting the proliferation of tumor cells, Daudi cell. The method, then: (§1) The tumor cells used herein were cultured in RPMI 1640 medium supplemented with 10% FBS, penicillin to a final concentration of 100 U/mL, and streptomycin to a final concentration of 100 μg/mL, at 37° C. in an incubator with 5% CO2. Prior to experimentation, all cells used were correctly identified by STR profiling, and tested negative for Mycoplasma through routine screenings.
(§2) IC50 values of the compounds of the present disclosure (including the compounds in Table 1, and Examples compounds) were measured using the Meilun Cell Counting Kit-8 kit from Dalian Meilun Biotech Co., Ltd. Assay details are as follows: the tumor cells were seeded into RPMI-1640 medium containing serum at a certain seeding density, wherein the seeding densities of the tumor cells are as follows: TMD8 cells, MM.1S cells, or Mino cells were seeded at a density of 10,000 cells/100 μL/well, and Daudi cells were seeded at a density of 4,000 cells/100 μL/well. After 24 h, 100 μL of the inoculated cells were treated with 0.5 μL of the compounds of the present disclosure (including the compounds in Table 1, and Examples compounds) in DMSO at 10 different successively decreasing concentrations (starting at a maximum concentration of 10 μM; 5-fold serial dilutions). […] The growth inhibition of the compounds of the present disclosure on the cells was plotted using Prism Graphpad software, and the IC50 values of the compounds of the present disclosure were calculated.

In the next experiment the test system is MM.1S cells. The settings on record: Homo sapiens, MM1.S, read-out: IC50 for inhibiting the proliferation of tumor cells, MM.1S cell. On the procedure:
as §1, §2

Another experiment has as its system Mino cells. The settings on record: Homo sapiens, read-out: IC50 for inhibiting the proliferation of tumor cells, Mino cell. The method, then:
as §1, §2

A further experiment relates to TMD8 cells. The settings on record: Homo sapiens, TMD8, 96 h, read-out: IC50 for inhibiting the proliferation of tumor cells, TMD8 cell. The method, then: as §1, §2

For `Nc1cccc2c1CN(C1CCC(=O)NC1=O)C2=O` (stereo not shown) [lenalidomide, reference compound], the IC50 is greater than 10000 nM in the experiment with Daudi cells, 1000 to 5000 nM in the experiment on MM.1S cells, 500 to 1000 nM with Mino cells and 1000 to 5000 nM in the experiment with TMD8 cells.
